# Apparent affinities of Ab-91 variants for a coronavirus HR2 peptide

Binding partner: SARS-CoV-2 spike HR2 peptide, sequence PDVDLGDISGINAS.

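The starting antibody came from a phage panning campaign against this peptide. Variants in AAYL51 differ from the parent at up to three CDR positions; double and triple changes were sampled at random. Affinity was read by AlphaSeq, a pooled yeast mating assay with surface-displayed partners. Mating (16 h, 30 °C) was followed by selection of diploids and sequencing of their barcodes. A regression on co-assayed BCL2-family reference pairs converts the normalised counts of each replicate to an apparent Kd. Each pool was mated in three replicate cultures.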

Ab-91 is the parent antibody, in scFv form: VL, then the linker GGGGSGGGGSGGGGS, then VH. The light chain is unchanged in all variants.
VL: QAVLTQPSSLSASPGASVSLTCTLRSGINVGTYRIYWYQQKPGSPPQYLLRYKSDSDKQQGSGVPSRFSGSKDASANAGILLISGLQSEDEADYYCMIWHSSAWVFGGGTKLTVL
VH: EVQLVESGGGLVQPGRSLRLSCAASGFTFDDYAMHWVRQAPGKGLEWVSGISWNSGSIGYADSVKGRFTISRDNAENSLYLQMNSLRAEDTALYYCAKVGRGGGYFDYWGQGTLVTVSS

Positions count from residue 1 of the parent VH; Y32M puts M in place of Y. Kd is apparent (estimated from mating counts) and averaged on the log scale over replicates with a signal. Smaller is tighter. An entry "nd" has no value in the source: the pair was not observed among the diploids in any replicate. This suggests poor binding but is not conclusive. Nonspecific signal, from three strains lacking the peptide, appeared in 21% of pairings of library AAYL51, centred on 34 µM (5% of these signals below 1.8 µM); values are not corrected for it. The control count says in how many pairings with the empty strains this scFv gave a signal. Parent in this assay: reference entry 72 nM, copy in this library 7.5 nM.

changes,Kd,replicates with signal,control signals
Y32M+H35R+G59W,nd,0 of 3,1 of 9
F27S+R101A+Y108P,1.4 µM,1 of 3,1 of 9
F27G+D62N+G103T,nd,0 of 3,1 of 9
D30L+S52N+S55L,58 µM,1 of 3,2 of 9
Y32E+H35T+S57F,6.8 µM,1 of 3,3 of 9
G26Y+M34C+V64C,nd,0 of 3,1 of 9
G56P+S63F+G103V,1.3 mM,1 of 3,6 of 9
F29Y+V99Y+G104M,670 µM,2 of 3,4 of 9
Y32D+S57Y+D62S,nd,0 of 3,1 of 9
I51E+W53N+G102M,nd,0 of 3,2 of 9
D31V+A61G+V64A,970 nM,3 of 3,1 of 9
A33F+S52R+G104W,7.3 µM,1 of 3,4 of 9
D30E+Y32M+F106Y,nd,0 of 3,0 of 9
Y32E+V64C+G104C,nd,0 of 3,0 of 9
T28C+G50S+G59Y,48 µM,3 of 3,4 of 9
T28L+G59N+G103N,64 µM,2 of 3,4 of 9
V64E+K65M,nd,0 of 3,0 of 9
S57N+Y60H+V64W,5.1 µM,1 of 3,0 of 9
V99I+F106V,1.7 µM,3 of 3,1 of 9
F27L+D31N+A61Q,3.0 µM,3 of 3,5 of 9
G26P+F27K+S57E,180 µM,2 of 3,0 of 9
D31E+H35Y+D62W,110 µM,1 of 3,1 of 9
D30E+H35M+A61S,490 nM,1 of 3,1 of 9
D30Q+S57K+Y105F,70 µM,3 of 3,5 of 9
F29G+S55C+Y60D,nd,0 of 3,1 of 9
F27W+D62Y+V99I,320 µM,3 of 3,6 of 9
I58S+Y105C,19 nM,3 of 3,2 of 9
F27P+K65A+Y105D,nd,0 of 3,0 of 9
M34K+I51W+G59M,nd,0 of 3,0 of 9
F27Q+A61T+G100N,nd,0 of 3,0 of 9
G26H+G50M+S63K,nd,0 of 3,0 of 9
G26A+I51S+R101M,120 µM,3 of 3,2 of 9
T28D+G103S+F106Y,36 µM,1 of 3,1 of 9
G50Y+S57D+R101T,nd,0 of 3,3 of 9
F29M+M34K+G56N,36 µM,1 of 3,1 of 9
D30G+G56I+G102S,530 nM,3 of 3,0 of 9
A33R+V99W+G102F,74 µM,1 of 3,0 of 9
V99W+Y105C+F106M,nd,0 of 3,1 of 9
D31P+I58L+G104L,nd,0 of 3,0 of 9
V64F+K65V+D107S,4.6 µM,1 of 3,2 of 9
F27D+I58V+V99Y,nd,0 of 3,0 of 9
A33T+I51E,510 nM,2 of 3,2 of 9
T28G+N54K+G102Q,38 µM,2 of 3,2 of 9
D31Y+G59F+Y105M,nd,0 of 3,2 of 9
I51G+N54H+D62Q,nd,0 of 3,0 of 9
F29I+A61Q+G103C,nd,0 of 3,0 of 9
T28R+A33M,52 µM,3 of 3,7 of 9
G103M+F106H,280 nM,3 of 3,5 of 9
S63C+R101M+G102F,nd,0 of 3,0 of 9
A61T+S63G+F106S,nd,0 of 3,0 of 9
D31Y+S55C+Y108F,7.6 µM,3 of 3,5 of 9
G50Q+S55N+A61E,nd,0 of 3,3 of 9
F27N+N54S+S63N,nd,0 of 3,0 of 9
D30A+I58N+V64G,3.1 µM,2 of 3,1 of 9
G59E+A61G+V99C,nd,0 of 3,0 of 9
T28N+S55R+S63G,2.1 µM,3 of 3,2 of 9
I51F+S52V+G104I,nd,0 of 3,3 of 9
F27P+N54V+F106E,nd,0 of 3,0 of 9
G50R+I51P+G100W,nd,0 of 3,3 of 9
D30H+K65M+G100H,14 µM,1 of 3,3 of 9

From the list, the first 4 with no signal in any replicate:

changes,Kd,replicates with signal,control signals
Y32M+H35R+G59W,nd,0 of 3,1 of 9
F27G+D62N+G103T,nd,0 of 3,1 of 9
G26Y+M34C+V64C,nd,0 of 3,1 of 9
Y32D+S57Y+D62S,nd,0 of 3,1 of 9

The measurements come from Engelhart et al. 2022 (doi:10.1038/s41597-022-01779-4) through the FLAb antibody collection.